Results taken from patent US20250375499A1 (FLAGSHIP PIONEERING INNOVATIONS VII, published 2025).

Chains of the proteins cited; added tags and fusions are not shown. Chains listed by the source or under a name are the forms on record and can include a tag or linker. Residues count along the entry.
UniProt O43557, 83-240 limits assumed: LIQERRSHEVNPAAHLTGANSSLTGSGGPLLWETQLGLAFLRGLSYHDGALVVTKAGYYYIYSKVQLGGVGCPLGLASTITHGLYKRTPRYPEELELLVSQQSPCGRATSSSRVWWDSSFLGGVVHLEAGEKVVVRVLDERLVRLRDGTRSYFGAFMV
recombinant human TNFα (Acro Bio TNA-H5228), one chain, as listed by the source limits assumed: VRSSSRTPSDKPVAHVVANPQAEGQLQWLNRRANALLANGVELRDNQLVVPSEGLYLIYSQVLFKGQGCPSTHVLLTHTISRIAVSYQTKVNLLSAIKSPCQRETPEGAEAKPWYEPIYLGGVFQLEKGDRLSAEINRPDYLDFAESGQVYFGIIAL

Legend:
[1] = target: T1, recombinant human TNFα (Acro Bio TNA-H5228) (human); test: ELISA: plate coated with recombinant human TNFα (2 µg/mL), Fc-tagged protein titrated 3-fold from 10 nM, anti-human Fc HRP, OD 450 nm background subtracted
T1 construct: Bought protein; also called hTNFα

[2] = target: T2, recombinant human FASL (Acro Bio HAL-H5241) (human, UniProt P48023 134-281, limits assumed); test: ELISA: plate coated with recombinant human FASL (2 µg/mL), Fc-tagged protein titrated 3-fold from 10 nM, anti-human Fc HRP, OD 450 nm background subtracted
T2 construct: Bought protein; also called hFASL; FAS Ligand
T2 sequence: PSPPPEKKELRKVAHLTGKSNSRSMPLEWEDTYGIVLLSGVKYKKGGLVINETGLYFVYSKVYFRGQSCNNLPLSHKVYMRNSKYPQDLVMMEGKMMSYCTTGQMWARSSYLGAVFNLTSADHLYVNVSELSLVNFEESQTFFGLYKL

[3] = target: T3, recombinant human LIGHT (Acro Bio LIT-H5242) (human, UniProt O43557, in part); test: ELISA: plate coated with recombinant human LIGHT (2 µg/mL), Fc-tagged protein titrated 3-fold from 10 nM, anti-human Fc HRP, OD 450 nm background subtracted
T3 construct: Bought protein; also called hLIGHT; Tumor Necrosis Factor Ligand Superfamily Member 14

[4] = target: T4, recombinant human TL1A (Acro Bio TLA-H5244), plate bound (human, UniProt O95150 72-251, limits assumed); test: ELISA: plate coated with recombinant human TL1A (2 µg/mL), Fc-tagged protein titrated 3-fold from 10 nM, anti-human Fc HRP, OD 450 nm background subtracted
T4 construct: Bought protein; also called hTL1A; Tumor Necrosis Factor Ligand Superfamily Member 15
T4 sequence: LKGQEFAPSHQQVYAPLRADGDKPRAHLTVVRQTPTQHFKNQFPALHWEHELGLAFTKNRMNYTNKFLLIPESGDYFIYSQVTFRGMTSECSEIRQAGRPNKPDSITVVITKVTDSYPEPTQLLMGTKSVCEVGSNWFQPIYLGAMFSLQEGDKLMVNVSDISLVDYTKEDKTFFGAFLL

- binding result [1]: no binding (tested: 10 nM (LOG[Dose] 1))
- binding result [2]: no binding (tested: 10 nM (LOG[Dose] 1))
- binding result [3]: no binding (tested: 10 nM (LOG[Dose] 1))
- binding result [4]: no binding (tested: 10 nM (LOG[Dose] 1))
B1: hFc (other)
Fc chain: AESKYGPPCPPCPAPEAAGGPSVFLFPPKPKDTLMISRTPEVTCVVVDVSQEDPEVQFNWYVDGVEVHNAKTKPREEQFNSTYRVVSVLTVLHQDWLNGKEYKCKVSNKGLPSSIEKTISKAKGQPREPQVYTLPPSQEEMTKNQVSLTCLVKGFYPSDIAVEWESNGQPENNYKTTPPVLDSDGSFFLYSRLTVDKSRWQEGNVFSCSVMHEALHNHYTQKSLSLSLG
notes: also called human IgG4 Fc
